Assay: Excretion into urine after oral administration
Settings: rabbit, in vivo

COC(=O)[C@H]1[C@H]2C[C@@H]3c4[nH]c5cc(OC)ccc5c4CCN3C[C@H]2C[C@@H](O)[C@@H]1OC [MR, methylreserpate]
main route of excretion: discharge into urine
